# Results reported in PubChem BioAssay AID1259370 (Center for Chemical Genomics, University of Michigan, 2018).
# “And” between values parts separate entries of the source, which are not always exact repeats. Identical values can stand only once. The list shows a part of the results, in another mix than the full data. The source made the active and inactive calls. Rule as the data show it: active = z-score above about 3.2; inactive = the rest.
# Target: M-phase inducer phosphatase 2 (Homo sapiens) + Cyclin-dependent kinase 2 (Homo sapiens) + Cyclin-A2 (Homo sapiens) (UniProt P30305+P24941+P20248)
# Test: primary biochemical HTRF screen for blockers of M-phase inducer phosphatase 2 binding to CDK2/cyclin A (AID 1259370)
# Details: HTRF CDC25B-CDK2/CyclinA binding, anti-His/anti-Flag; stronger effect = higher value
row,SMILES,z-score
1,COC(=O)NC(Sc1ccc(Cl)cc1)C(Cl)Cl (configuration not stated),inactive: -0.07
2,O=[N+]([O-])C1([N+](=O)[O-])COCOC1,inactive: -2.49
3,O=[N+]([O-])OCCC(CN1CCN(CC(CCO[N+](=O)[O-])([N+](=O)[O-])[N+](=O)[O-])CC1)([N+](=O)[O-])[N+](=O)[O-],inactive: 0.68
4,C=CCN1CCN(CCOC(=O)C(O)(c2ccccc2)c2ccccc2)CC1,inactive: -0.67
5,CC[N+](CC)=C1S[C@@H]2CS(=O)(=O)C(Br)[C@]2(C)S1 (some centres not stated),inactive: -1.74
6,O=C(OC1CN2CCC1CC2)c1cccc(F)c1 (configuration not stated),inactive: -2.13
7,NCCSP(=O)(O)O,inactive: -1.07
8,ClC(Cl)(Cl)C1=NP2(=NC(c3ccccc3)=N1)OCCCO2,inactive: -2.29
9,CN(C(=O)Cc1ccc(Cl)c(Cl)c1)[C@H]1CCCC[C@@H]1N1CCCC1,inactive: 0.44 and inactive: -1.53
10,O=C(CCc1ccccc1)OC1CN2CCC1CC2 (configuration not stated),inactive: 1.38
11,CN(C)CCOC(=O)C(O)(c1ccccc1)C1CCCC1 (configuration not stated),inactive: -1.71
12,N=C1N=C(c2ccc([N+](=O)[O-])cc2)CC(C(Cl)(Cl)Cl)S1 (configuration not stated),inactive: 1.94
13,CCOP(C)(=S)SCN(CC(=O)O)C(=O)OCc1ccccc1 (configuration not stated),inactive: 1.12
14,O=C(OC1CN2CCC1CC2)C12CC3CC(CC(C3)C1)C2 (configuration not stated),inactive: -0.99
15,CCOC(=O)/C(=N/Nc1ccc([N+](=O)[O-])cc1)N1CC1,inactive: -1.08
16,O=C(COc1ccc(F)cc1)OC1CN2CCC1CC2 (configuration not stated),inactive: -0.15
17,CCCOP(=O)(OCCC)O/C(C)=C/SC#N,inactive: -0.5
18,O=C(O)C1(O)c2ccccc2-c2ccccc21,inactive: -2.1
19,CCOP(C)(=S)SCSCC(=O)OCC(C)C (configuration not stated),inactive: -1.24

row,SMILES,z-score
1,O=[N+]([O-])c1nnn(CN(Cn2nnc([N+](=O)[O-])n2)[N+](=O)[O-])n1,inactive: -1.01
2,O=C(NNC(=O)c1ccncc1)NP1Oc2ccccc2O1,inactive: -0.7
3,CN(C)CCOC(=O)C(O)(c1ccccc1)c1ccccc1,inactive: -1.53
4,CC1=NCCCN1C.O=[N+]([O-])c1cc([N+](=O)[O-])c(O)c([N+](=O)[O-])c1,inactive: -2.87
5,Nc1nonc1N=Nc1nonc1N,inactive: -2.26
6,O=C(COc1ccccc1)OC1CN2CCC1CC2 (configuration not stated),inactive: 1.49
7,COC(=O)C1=C(C(=O)OC)S[C@](Br)(C(=O)OC)[C@@](Br)(C(=O)OC)S1,inactive: 1.11
8,O=[N+]([O-])c1nonc1COc1nonc1[N+](=O)[O-],inactive: -2.72
9,Cc1cc(NP(=O)(Oc2ccccc2)Oc2ccccc2)no1,inactive: -0.8
10,O=C(OC1CN2CCC1CC2)c1cccc([N+](=O)[O-])c1 (configuration not stated),inactive: -1.93
11,BrC1CSc2nc3ccccc3n2C1c1ccccc1 (configuration not stated),inactive: -0.08
12,O=[N+]([O-])C(F)(F)COc1nc(OCC(F)(F)[N+](=O)[O-])nc(OCC(F)(F)[N+](=O)[O-])n1,inactive: -2.7
13,Cc1n[n+]2c([nH]c1=O)SCC(Br)C2c1ccccc1 (configuration not stated),inactive: -0.99
14,CN1CC(=O)N/C1=N\P(=O)(OCc1ccccc1)OCc1ccccc1,inactive: -1.92
15,CN(C(=O)Cc1ccccc1)[C@@H]1CC[C@]2(CCCO2)C[C@H]1N1CCCC1,inactive: -1.2
16,COc1cc(-n2cnnn2)ccc1-n1cnnn1,inactive: -1.02
17,CN(C(=O)Cc1ccc(Cl)c(Cl)c1)[C@@H]1CC[C@]2(CCCO2)C[C@H]1N1CCCC1,inactive: -1
18,Nc1nonc1N=NNc1nonc1N,inactive: -3.09
